# Literature values, collected in patent publication US10669261B2, “Heteroarylhydroxypyrimidinones as agonists of the APJ receptor” (BRISTOL-MYERS SQUIBB COMPANY, priority 2015, dated 2020).
# Conditions: cited from earlier work
substance,measurement,value
apelin,half life in circulation,less than 5 minutes
